From PubChem BioAssay AID1987 (The Scripps Research Institute Molecular Screening Center, 2009)
The entries are a selection whose mix differs from that of the whole data set. Activity calls are given as the source filed them.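 Rule for the calls: active = inhibition above the campaign's mean inhibition across all tested compounds plus 3 SD (cut at about 9.5% in these data); inactive = the rest.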

Chains of the proteins cited; added tags and fusions are not shown. Lines headed by an entry give the natural chain unless they say otherwise; changes in a name come on top.
UniProt P53041: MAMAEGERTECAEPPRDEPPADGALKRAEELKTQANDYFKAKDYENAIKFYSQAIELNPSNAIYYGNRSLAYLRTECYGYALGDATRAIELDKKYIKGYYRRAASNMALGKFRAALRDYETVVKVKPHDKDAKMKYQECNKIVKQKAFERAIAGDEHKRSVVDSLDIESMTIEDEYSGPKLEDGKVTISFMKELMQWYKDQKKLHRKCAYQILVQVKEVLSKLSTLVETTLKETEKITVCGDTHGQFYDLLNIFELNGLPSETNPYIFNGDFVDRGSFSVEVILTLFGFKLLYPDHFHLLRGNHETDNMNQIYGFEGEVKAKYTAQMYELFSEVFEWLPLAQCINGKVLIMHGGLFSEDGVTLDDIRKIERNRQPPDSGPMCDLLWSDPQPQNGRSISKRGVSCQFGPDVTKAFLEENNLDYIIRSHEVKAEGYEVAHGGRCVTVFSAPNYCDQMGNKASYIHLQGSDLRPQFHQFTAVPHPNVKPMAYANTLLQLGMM

Molecular target: Serine/threonine-protein phosphatase 5 (Homo sapiens) (UniProt P53041)
Assay: inhibition of human PP5 catalytic activity – biochemical, fluorescence, primary screen (AID 1987);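 note: 0% = DMSO only and 100% = 100 µM cantharidin control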
Details: purified PP5c, OMFP substrate fluorescence; at 6.7 µM; active compounds read high

Structure (SMILES)	inhibition
CC(C)(C)C(=O)NC(Sc1ccncn1)C(Cl)(Cl)Cl (stereo unspecified)	inactive: 0.29%
Cc1ccc(NP(=O)(Oc2ccccc2F)Oc2ccccc2F)nc1	inactive: 0.8%
CN(C(=O)Cc1ccc(Cl)c(Cl)c1)[C@H]1CCCC[C@@H]1N1CCCC1	inactive: -0.14%
Cc1cc(SC(NC(=O)c2ccc(F)cc2)C(Cl)(Cl)Cl)ncn1 (stereo unspecified)	inactive: 0.48%
CCOP(=O)(Nc1ccccc1)OCC	inactive: 0.11%
O=P(Nc1nc2ccc(Cl)cc2s1)(c1ccccc1)c1ccccc1	inactive: 3.54%
CC(=O)Nc1ccc([As](=O)(O)O)cc1	inactive: 2.23%
O=C(O)c1ccccc1[As](=O)(O)O	inactive: 1.57%
O=[N+]([O-])c1cc([N+](=O)[O-])c(CCN2CCOCC2)c([N+](=O)[O-])c1	inactive: 0.18%
CN1CCCC(OC(=O)C(c2ccccc2)c2ccccc2)C1 (stereo unspecified)	inactive: -0.94%
Clc1ccc(Cl)c(NC2=NCC(CBr)S2)c1 (stereo unspecified)	inactive: 0.1%
Cc1ccc(OP(=O)(Nc2nccs2)Oc2ccc(C)cc2)cc1	inactive: -0.14%
COc1ccccc1OP(=O)(Nc1ccc(C)cn1)Oc1ccccc1OC	inactive: -0.96%
Cc1ccc(N/C(=N/P(=O)(N2CCOCC2)N2CCOCC2)N2CCOCC2)cc1	inactive: -0.35%
CN(C(=O)Cc1ccc(Cl)c(Cl)c1)[C@H]1CCCC[C@H]1N1CCCC1	active: 12.7%
NC(=O)c1cc([N+](=O)[O-])cc([N+](=O)[O-])c1N	inactive: -0.94%
O=C(NC(Sc1ccncn1)C(Cl)(Cl)Cl)c1ccccc1 (stereo unspecified)	inactive: -0.18%
Cc1c2non([O-])c-2c(C)[n+](=O)[n+]1[O-]	inactive: 1.27%
Oc1ccccc1CNc1ccccn1	inactive: -0.08%
Nc1cc(N)c2nonc2c1[N+](=O)[O-]	inactive: -0.59%
CC(C)CC(=O)NC(Sc1ccc(Cl)cc1)C(Cl)(Cl)Cl (stereo unspecified)	inactive: 3.85%
COc1cc(I)ccc1[As](=O)(O)O	inactive: -1.68%
COc1ccc2nc(NP(=O)(c3ccccc3)c3ccccc3)sc2c1	inactive: -0.37%
Cc1c2c(nc3ccccc13)SC(C(Cl)Cl)C2 (stereo unspecified)	inactive: -0.74%
Cc1cc(=O)[nH]c(N[N+](=O)[O-])n1	inactive: 0.15%
O=C(OC1CN2CCC1CC2)C12CC3CC(CC(C3)C1)C2 (stereo unspecified)	inactive: 3.21%

Structure (SMILES)	inhibition
COc1ccc(N/C(=N/P(=O)(N2CCOCC2)N2CCOCC2)N2CCOCC2)cc1	inactive: -1.17%
Cc1ccc(OP(=O)(Nc2ccc([N+](=O)[O-])cn2)Oc2ccc(C)cc2)cc1	inactive: 0.45%
Cc1ccc2nc3c(c(C)c2c1)CC(C(Cl)Cl)S3 (stereo unspecified)	inactive: 3.64%
COc1cc(C(=O)NCC2(N3CCOCC3)CCCCC2)ccc1OCC(C)C	inactive: 2.73%
C[As](=O)(O)c1cccc(C(=O)O)c1	inactive: 2.35%
O=[As](O)(c1ccc(O)cc1)c1ccccc1O	inactive: 0.53%
O=[N+]([O-])c1cc([N+](=O)[O-])c(-c2ccn[nH]2)s1	inactive: 0.68%
CC(C)NC(=O)NP(=O)(Oc1ccccc1)Oc1ccccc1	inactive: -0.09%
CCN(CC)C(=S)SC(NC=O)C(Cl)(Cl)Cl (stereo unspecified)	inactive: -0.16%
ClCCSc1nnc(-c2cccnc2)o1	inactive: 1.13%
CC(C)c1ccc(OP(=O)(Nc2ccccn2)Oc2ccccc2F)cc1 (stereo unspecified)	inactive: 1.34%
Cc1cc(SC(NC(=O)c2ccccc2)C(Cl)(Cl)Cl)nc(C(C)C)n1 (stereo unspecified)	inactive: -0.3%
CCOC(=O)Nc1ccc([As](=O)(O)O)c(O)c1	inactive: 0.75%
O=P(Nc1ccccn1)(c1cccc2ccccc12)c1cccc2ccccc12	inactive: 1.72%
Cc1cc(SC(NC=O)C(Cl)(Cl)Cl)ncn1 (stereo unspecified)	inactive: 4.36%
CCOC(=O)Nc1cccc([As](=O)(O)O)c1	inactive: -1.05%
O=C(Nc1ccncc1[N+](=O)[O-])c1ccc([N+](=O)[O-])cc1[N+](=O)[O-]	inactive: 0.08%
O=C(COc1ccccc1)OC1CN2CCC1CC2 (stereo unspecified)	inactive: -1.75%
CCC(C)N(CC(C)C)C(=S)SC(NC(C)=O)C(Cl)(Cl)Cl (stereo unspecified)	inactive: -0.31%
O=C(OC1CN2CCC1CC2)c1cccc([N+](=O)[O-])c1 (stereo unspecified)	inactive: -0.71%
CCOC(=O)c1ccc(NC(=O)C(C)(CCl)SC)cc1 (stereo unspecified)	inactive: 1.6%
CC(C)(C)C(=O)NC(Sc1ncccn1)C(Cl)(Cl)Cl (stereo unspecified)	inactive: -2.44%
Clc1n[nH]nc1-c1nn[nH][15n]1	inactive: -1.96%
CCOP(=O)(NC(=NC(C)c1ccccc1)NC(C)c1ccccc1)OCC (stereo unspecified)	inactive: 1.2%
O=P1(Nc2ccccn2)COc2ccccc2OC1	inactive: 1.6%
